Results from patent publication US10132810B2, “Method for assessing and predicting efficacy of breast cancer treatment with a long-acting topoisomerase I inhibitor” (priority 2012, dated 2018).

Conditions: SN-38 exposure, versus irinotecan

With “Pentaerythritolyl-4-Arm-(PEG-1-Methylene-2 Oxo-Vinylamino Acetate linked-Irinotecan)-20K” as the substance, how does the “maximal concentrations compared to irinotecan” value read?
The value was “five- to ten-times less”.
